Source: PubChem (Broad Institute)
RAD54 branch: inhibitors of human RAD54 branch migration, primary screen, biochemical, fluorescence, single point; RAD54 Holliday junction branch migration, FAM/BHQ fluorescence; inhibition, % at 10.4 µM; hit rate 0.14% among 360,000;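 active means mean normalized replicate activity at least 40 and at least half of replicates scoring 40 or more; inconclusive means only one of the two criteria met; inactive means mean below 40 and under half of replicates reaching 40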;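 further: 0% = median of neutral control wells and 100% = median of positive control wells; inhibitors cause a drop in the FAM fluorescence signal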
XiGFP reactiv: activators of inactive X chromosome reactivation, primary screen, imaging, XiGFP fibroblasts, GFP high-content imaging, set 2; XiGFP mouse fibroblasts, % GFP-positive cells imaging, 3 d; cells co-treated with 5-aza-dC sensitizer; scaled so ellipticine positive control = 100%; activation, % at 7.58 µM; hit rate 0.055% among 360,000;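 active means mean normalized replicate activation at least 10% and every replicate at or above 10%; inconclusive means only one of the two criteria met; inactive means mean below 10% and not all replicates reach 10%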;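 further: 0% = median of on-plate neutral control wells and 100% = ellipticine 6 µM median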
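Material: SV40-immortalized XiGFP fibroblast cells, line 68-5-11 | Buffer or medium: DMEM containing 5-aza-dC | Dosing: One concentration, pinned | Times: 3 d treatment, 15 min room-temperature fixation | Controls: Ellipticine 6 µM positive control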
UUG fidelity: modulators of yeast start codon fidelity, primary screen, whole organism, S. cerevisiae, single point, plate reader | AID 602363, 2012 | S. cerevisiae UUG-firefly luciferase reporter, luminescence/redox ratio | activity score, % at 18.7 µM | hit rate 0.13% among 350,000;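 active = replicate mean at a twofold rise or more, about +100% in these data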;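 also: firefly luciferase made from a UUG start codon reports start codon fidelity; reporter light over untreated wells divided by growth signal over untreated wells; some hits fall short of that in this replicate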
RAD52 inh: RAD52 DNA annealing inhibitors, primary screen, biochemical, FRET, single point, set 2. recombinant RAD52 DNA annealing, FRET fluorescence. inhibition, % at 18.7 µM. hit rate 0.46% among 360,000. AID 651710, 2012;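 active means every replicate showing at least 50% inhibition; inconclusive means mean inhibition at least 50% but not in every replicate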
E-selectin induc: E-selectin induction in HUVECs, primary screen, imaging, HUVEC, immunofluorescence imaging, single point; P16581; normalized: neutral wells 0, TNF-alpha wells 100; activation, % at 7.58 µM; hit rate 0.37% among 260,000; AID 686992, 2013;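 active means mean E-selectin-positive cell signal at least 10% of the positive control, reached in at least 60% of replicates, without over 20% cell loss; inconclusive means no rule given, readout overlaps actives, possibly toxicity-flagged; inactive means the rest, including those meeting only one limit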
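Read-out basis: % PE-positive cells; Test system: HUVEC primary endothelial cells; Technique: immunofluorescence imaging; Dosing: single-point compound dose.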
An asterisk follows results filed as active; i = inactive; ? = inconclusive; nt = not tested or not shown. This is a sample that favours compounds with a hit; in the whole collection about 0.73% have one here.

SMILES	RAD54 branch	XiGFP reactiv	UUG fidelity	RAD52 inh	E-selectin induc
O=C1CC(N2CCN(c3ccccc3)CC2)C(=O)N1c1cccc(Br)c1 (stereo unspecified)	10.6	0.0	-15.1	-11.5	nt
O=C1CC(N2CCSCC2)C(=O)N1c1cccc(Br)c1 (stereo unspecified)	-6.3	0.0	-12.5	-5.7	43.1*
Cc1ccc(-c2cnc3c(c2)C(=O)N([C@@H](C)CO)C[C@@H](C)[C@@H](CN(C)C(=O)c2ccc(F)cc2)O3)cc1	2.5	0.6	13.0	3.9	0.2
Cc1ccc(S(=O)(=O)N2CCOCC2)cc1C(=O)NC1CCCCC1	-3.4	nt	-6.7	nt	nt
Cc1ccc(S(=O)(=O)N2CCOCC2)cc1C(=O)NC1CCCC1	6.3	0.3	-12.8	-9.0	31.2*
Cc1ccc(S(=O)(=O)NNC(=O)c2cccc(O)c2)cc1	nt	0.0	nt	-8.8	72.6*
O=C(CN1CCOCC1)N1CC(=O)N2[C@H](CO)[C@@H](c3ccc(/C=C/c4ccccc4)cc3)[C@H]2C1	nt	0.0	nt	-11.9	0.0
COc1ccc(COc2ccccc2C(=O)NCc2ccccc2)cc1F	0.9	23.3*	6.6	nt	nt
COc1cc(C(=O)NCc2ccccc2)ccc1OC(F)F	nt	-0.1	nt	-6.9	-0.7
C[C@H](CO)N1C[C@H](C)[C@H](CN(C)C)Oc2ccc(NC(=O)Cc3cn(C)c4ccccc34)cc2C1=O	6.4	0.2	-6.4	1.6	37.3*
COc1ccc(NC(=O)N(C)C[C@H]2Oc3ccc(NC(=O)Cc4cn(C)c5ccccc45)cc3C(=O)N([C@H](C)CO)C[C@@H]2C)cc1	-7.9	-0.9	5.6	-11.9	32.0*
COCC(=O)Nc1ccc2c(c1)[C@H]1C[C@@H](CC(=O)NC3CCCCC3)O[C@@H](CO)[C@H]1O2	-14.2	0.5	8.9	-3.9	-0.5
CC(=O)Nc1ccc2c(c1)C(=O)N(C)C[C@H](C)[C@@H](CN(C)C(=O)OC(C)(C)C)O2	nt	0.1	nt	nt	nt
COc1cccc(NC(=O)C2C3C=CC4(O3)C2C(=O)N(CCCN2CCCCC2)C4C(=O)NC2CCCCC2)c1 (stereo unspecified)	2.4	0.4	-1.9	-8.9	29.1*
CS(=O)(=O)c1ccccc1-c1csc(N2CCC(C(N)=O)CC2)n1	nt	0.0	nt	-10.5	40.9*
CN1CCCCN2[C@H](CO)[C@@H](c3ccc(/C=C/c4ccccc4)cc3)[C@H]2C1	7.9	0.0	5.7	53.2*	-0.2
CN1CCCCN2[C@H](CO)[C@H](c3ccc(/C=C/c4ccccc4)cc3)[C@H]2C1	13.2	0.0	-0.1	77.1*	0.5
CN1CCCCN2[C@H](CO)[C@@H](c3ccc(-c4ccccc4)cc3)[C@@H]2C1	-12.9	0.0	-5.0	19.3	0.1
CN1CCCCN2[C@H](CO)[C@H](c3ccc(-c4ccccc4)cc3)[C@H]2C1	2.7	0.0	-7.1	8.7	-0.1
CCCN1C[C@@H](C)[C@@H](OC)CN(C)C(=O)c2ccc(NC(=O)c3ccc(F)cc3)cc2OC[C@H]1C	11.3	-0.5	nt	nt	0.0
CCN1/C(=C/c2ccc3cc(C)ccc3[n+]2CC)Sc2cc(C)ccc21	i	101.5*	40.3	i	nt
CCN1/C(=C/c2ccc3cc(C)ccc3[n+]2C)Sc2ccc3sccc3c21	-33.7	0.6	-19.7	-480.4	?
Cc1ccc(S(=O)(=O)N[C@@H](CC(C)C)C(=O)N2CCC(C(=O)N[C@@H](Cc3ccccc3)C(=O)O)CC2)cc1	-7.8	nt	-4.2	-6.5	nt
Cc1ccc(S(=O)(=O)N[C@@H](Cc2ccccc2)C(=O)N2CCC(C(=O)N[C@@H](CCC(N)=O)C(=O)O)CC2)cc1	0.3	0.2	-8.5	-13.7	65.9*
O=C(C[C@H]1CC[C@@H]2[C@H](COC[C@@H](O)CN2C(=O)c2cnccn2)O1)NCc1ccc(Oc2ccccc2)cc1	-4.0	0.4	nt	8.6	0.0
C[C@H]1CN([C@@H](C)CO)C(=O)Cc2cc(NC(=O)Cc3cn(C)c4ccccc34)ccc2O[C@@H]1CN(C)Cc1ccncc1	-9.1	-1.0	-15.2	-8.3	nt
CN(Cc1ccsc1)C(=O)CCc1nnc(Cc2c[nH]c3ccccc23)o1	nt	0.4	nt	-26.1	nt

Part of the list above, set out differently:
canonical_smiles: CN1CCCCN2[C@H](CO)[C@@H](c3ccc(/C=C/c4ccccc4)cc3)[C@H]2C1
  RAD54 branch: 7.9 | XiGFP reactiv: 0.0 | UUG fidelity: 5.7 | RAD52 inh: 53.2* | E-selectin induc: -0.2
canonical_smiles: Cc1ccc(-c2cnc3c(c2)C(=O)N([C@@H](C)CO)C[C@@H](C)[C@@H](CN(C)C(=O)c2ccc(F)cc2)O3)cc1
  RAD54 branch: 2.5 | XiGFP reactiv: 0.6 | UUG fidelity: 13.0 | RAD52 inh: 3.9 | E-selectin induc: 0.2
